The target of this experiment is T1, recombinant human HDAC8 (Homo sapiens, UniProt Q9BY41).
T1 sequence (Q9BY41 1-377): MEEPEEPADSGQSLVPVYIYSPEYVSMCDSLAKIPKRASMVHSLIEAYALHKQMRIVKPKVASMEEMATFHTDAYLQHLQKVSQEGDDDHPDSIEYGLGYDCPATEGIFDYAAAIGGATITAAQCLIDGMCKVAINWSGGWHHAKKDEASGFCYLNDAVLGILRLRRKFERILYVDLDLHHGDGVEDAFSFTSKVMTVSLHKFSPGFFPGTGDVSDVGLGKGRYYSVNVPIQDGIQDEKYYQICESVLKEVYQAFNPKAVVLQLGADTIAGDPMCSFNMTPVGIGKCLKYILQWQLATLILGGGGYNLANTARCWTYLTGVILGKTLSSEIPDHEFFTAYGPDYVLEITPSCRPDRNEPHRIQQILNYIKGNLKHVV
The experiment in a line: HDAC8 inhibition, fluorescent acetylated substrate Fluor de Lys. In kind it is biochemical. As to conditions: HDAC8 inhibitors used in this study.

Molecules are shown by their SMILES.

The Ki is a measure of affinity in units of concentration, obtained from inhibition or displacement. As to `O=C(CCCCCCC(=O)Nc1ccccc1)NO` [1a, suberoyl anilide hydroxamic acid], the Ki is 395 nM.

These data come from paper PMC3565472 (Journal of molecular modeling, 2012).
